choline citrate
change in magnesium level (in words) (30 day period, no magnesium supplementation): modest but statistically insignificant increase | effect on ionized magnesium levels (in words) (choline citrate alone): does not substantially raise
